Results published in PubChem BioAssay AID624126 (The Scripps Research Institute Molecular Screening Center, 2012).
This is a selection; strong and weak results do not stand in their true shares. Active and inactive are the calls of the source.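 Rule for the calls: active = activation above its plate's cutoff, the mean activation of sample wells plus 3 SD; inactive = the rest.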

Chains of the proteins cited; added tags and fusions are not shown.
UniProt P08173, whole entry: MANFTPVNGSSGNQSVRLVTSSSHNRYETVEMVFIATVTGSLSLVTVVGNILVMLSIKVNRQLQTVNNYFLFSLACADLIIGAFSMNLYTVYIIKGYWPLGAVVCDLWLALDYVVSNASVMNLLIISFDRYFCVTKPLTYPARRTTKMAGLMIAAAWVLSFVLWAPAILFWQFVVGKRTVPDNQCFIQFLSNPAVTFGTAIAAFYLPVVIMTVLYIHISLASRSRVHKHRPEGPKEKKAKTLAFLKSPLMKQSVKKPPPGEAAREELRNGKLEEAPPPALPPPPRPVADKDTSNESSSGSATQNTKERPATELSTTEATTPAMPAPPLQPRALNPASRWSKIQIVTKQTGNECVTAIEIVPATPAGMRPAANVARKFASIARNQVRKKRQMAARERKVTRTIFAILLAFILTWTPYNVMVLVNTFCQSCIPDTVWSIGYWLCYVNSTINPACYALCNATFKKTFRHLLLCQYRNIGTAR

These compounds were tested against Muscarinic acetylcholine receptor M4 (Homo sapiens) (UniProt P08173) (assay: human M4 muscarinic receptor positive allosteric modulators, primary screen, CHO-K1 cells, Fluo-8 calcium fluorescence (AID 624126)). Conditions: CHO-K1 hM4/Gqi5, Fluo-8 calcium fluorescence, ACh EC20; at 3 µM; hits give high values; 0% = ACh EC20, 100% = maximal ACh.
For `CCN1CCC(Nc2ccc(Cl)cc2)CC1`, the activation was inactive: -1.99%.
For `O=C(NCC1(N2CCCCC2)CCCCC1)c1cncc(Br)c1`, the activation was inactive: -3.75%.
`CN1CCC(Nc2cccc(F)c2)CC1` was tested, and the activation was inactive: -11.2%.
For `CCCOc1ccc(C(=O)NCC2(N(C)C)CCCCC2)cc1OC`, the activation was inactive: 4.39%.
In the case of `Cc1ccc(C(=O)NCC2(N(C)C)CCCCC2)o1`, the activation is reported as inactive: 8.01%.
In the case of `COc1ccc(C(c2nnnn2C2CCCC2)N2CCC(n3c(=O)[nH]c4ccccc43)CC2)cc1` (stereo not drawn), the activation is reported as inactive: -7.36%.
`CN(C)c1cccc(C(=O)NCC2(N3CCCCC3)CCCCC2)c1` was tested, and the activation was inactive: -2.56%.
`COc1ccc(CN(CCCl)CCCl)cc1Cl` was tested, and the activation was inactive: 10.2%.
In the case of `CCCCn1nnnc1C(c1ccccc1OC(F)(F)F)N1CCC(n2c(=O)[nH]c3ccccc32)CC1` (stereo not drawn), the activation is reported as inactive: 7.4%.
With `CC(C)c1ccc(NC2CCN(C(=O)OC(C)(C)C)CC2)cc1` the activation was inactive: 8.8%.
In the case of `CCCCn1nnnc1C(c1ccnc2ccccc12)N1CCC(n2c(=O)[nH]c3ccccc32)CC1` (stereo not drawn), the activation is reported as inactive: -9.96%.
`CCC(c1nnnn1C(C)(C)C)N1CCC(n2c(=O)[nH]c3ccccc32)CC1` (stereo not drawn) was tested, and the activation was inactive: 3.14%.
In the case of `O=C(NCC1(N2CCOCC2)CCCCC1)c1cc(F)c(F)cc1Cl`, the activation is reported as inactive: 3.74%.
For `COc1cc(OC)c(C(=O)NCC2(N(C)C)CCCCC2)cc1OC`, the activation was inactive: -2.39%.
`O=C(NCC1(N2CCOCC2)CCCCC1)c1cc2ccccc2o1` was tested, and the activation was inactive: 12.6%.
In the case of `Cc1cc(C)cc(N(C(=O)c2ccccc2)C2CCN(C(=O)OC(C)(C)C)CC2)c1`, the activation is reported as inactive: -2.77%.
With `O=c1[nH]c2ccccc2n1C1CCN(C(c2ccccc2OC(F)(F)F)c2nnnn2C2CCCCC2)CC1` (stereo not drawn) the activation was inactive: 0.58%.
In the case of `O=C(NCC1(N2CCCCC2)CCCCC1)c1ccc(Cl)nc1`, the activation is reported as inactive: -0.1%.
For `CCCCn1nnnc1C(c1ccc(OC)cc1)N1CCC(n2c(=O)[nH]c3ccccc32)CC1` (stereo not drawn), the activation was inactive: -7.41%.
In the case of `CCOC(=O)N1CCC(Nc2ccc(OC)cc2)CC1`, the activation is reported as inactive: 2.1%.
`COc1ccc(Cl)cc1C(=O)NCC1(N2CCOCC2)CCCCC1` was tested, and the activation was inactive: -0.02%.
With `O=C(OC1CN2CCC1CC2)C1c2ccccc2Oc2ccccc21` (stereo not drawn) the activation was inactive: -34.7%.
`O=c1[nH]c2ccccc2n1C1CCN(C(c2cc3ccccc3o2)c2nnnn2C2CCCCC2)CC1` (stereo not drawn) was tested, and the activation was inactive: -3.22%.
In the case of `O=C(NCC1(N2CCCCC2)CCCCC1)c1ccc(Cl)s1`, the activation is reported as inactive: 4.8%.
In the case of `N#CC1(Nc2ccccc2)CCN(Cc2ccccc2)CC1`, the activation is reported as inactive: 3.02%.
In the case of `CCCCn1nnnc1C(c1cccs1)N1CCC(n2c(=O)[nH]c3ccccc32)CC1` (stereo not drawn), the activation is reported as inactive: -10.1%.
With `CCCCn1nnnc1C(CC)N1CCC(n2c(=O)[nH]c3ccccc32)CC1` (stereo not drawn) the activation was inactive: -6.9%.
For `O=C(NCC1(N2CCCCC2)CCCCC1)c1cccs1`, the activation was inactive: -3.42%.
With `O=C(NCC1(N2CCCCC2)CCCCC1)c1ccc(=O)[nH]c1` the activation was inactive: -0.24%.
`CCC(c1nnnn1C1CCCC1)N1CCC(n2c(=O)[nH]c3ccccc32)CC1` (stereo not drawn) was tested, and the activation was inactive: -6.94%.
`COc1ccc(C(=O)NCC2(N3CCCCC3)CCCCC2)c(OC)c1OC` was tested, and the activation was inactive: 7.04%.
`CC(C)(C)OC(=O)N1CCC(N(C(=O)c2ccccc2)c2ccc(F)cc2)CC1` was tested, and the activation was inactive: 3.59%.
`COc1ccc(C(=O)NCC2(N3CCCCC3)CCCCC2)cc1` was tested, and the activation was inactive: -3.75%.
In the case of `Cc1cccc(NC2(C#N)CCN(Cc3ccccc3)CC2)c1`, the activation is reported as inactive: -0.29%.
With `CSc1ccccc1C(=O)NCC1(N2CCCCC2)CCCCC1` the activation was inactive: 4.15%.
With `O=c1[nH]c2ccccc2n1C1CCN(C(c2ccccc2)c2nnnn2C2CCCCC2)CC1` (stereo not drawn) the activation was inactive: -6.9%.
With `O=c1[nH]c2ccccc2n1C1CCN(C(c2cccc3ccccc23)c2nnnn2C2CCCC2)CC1` (stereo not drawn) the activation was inactive: -0.13%.
`COc1cc(C(=O)NCC2(N(C)C)CCCCC2)ccc1OC(F)F` was tested, and the activation was inactive: 2.82%.
For `CCOC(=O)N1CCC(Nc2cccc(C)c2)CC1`, the activation was inactive: 0.14%.
For `CCOc1ccc(C)cc1CN(CCCl)CCCl`, the activation was inactive: -41.3%.
In the case of `O=C1CCN(Cc2ccccc2)CC1`, the activation is reported as inactive: 0.37%.
With `CC(C)(C)n1nnnc1C(c1ccccc1)N1CCC(n2c(=O)[nH]c3ccccc32)CC1` (stereo not drawn) the activation was inactive: 3.01%.
In the case of `COc1ccc(NC2CCN(CCc3ccccc3)CC2)c(OC)c1`, the activation is reported as inactive: -8.99%.
With `CCOC(=O)N1CCC(Nc2ccc(F)cc2)CC1` the activation was inactive: -4.33%.
In the case of `O=C(NCC1(N2CCCCC2)CCCCC1)c1ccc(F)cc1`, the activation is reported as inactive: -0.76%.
`CCCCn1nnnc1C(c1cc2ccccc2o1)N1CCC(n2c(=O)[nH]c3ccccc32)CC1` (stereo not drawn) was tested, and the activation was inactive: -5.36%.
With `O=P1(N(CCCl)CCCl)SCCCS1` the activation was inactive: 2.72%.
For `CCCCOc1ccc(C(=O)NCC2(N3CCOCC3)CCCCC2)cc1`, the activation was inactive: -2.02%.
